Experimental findings from PubChem BioAssay AID2235 (The Scripps Research Institute Molecular Screening Center, 2010) are described below.

By UniProt entry, the sequences of proteins in these tests, tags left out.
UniProt P62136, whole entry, looked up: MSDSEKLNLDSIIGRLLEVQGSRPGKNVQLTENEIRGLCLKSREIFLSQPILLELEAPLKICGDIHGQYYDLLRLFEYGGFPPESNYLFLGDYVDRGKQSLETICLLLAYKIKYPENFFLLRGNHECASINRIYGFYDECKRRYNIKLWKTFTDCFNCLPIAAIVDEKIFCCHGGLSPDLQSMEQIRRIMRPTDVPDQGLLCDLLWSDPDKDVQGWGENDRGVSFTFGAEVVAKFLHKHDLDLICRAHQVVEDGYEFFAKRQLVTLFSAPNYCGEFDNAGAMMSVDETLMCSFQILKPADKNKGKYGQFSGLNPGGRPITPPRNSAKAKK

SMILES strings stand for the structures. This is a selection; strong and weak results do not stand in their true shares. The source made the active and inactive calls.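 Rule for the calls: active = inhibition above the mean inhibition of all tested compounds plus 3 SD, computed separately for each screening campaign (cut at about 15% in these data); inactive = the rest.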

The target in this assay is Serine/threonine-protein phosphatase PP1-alpha catalytic subunit (Homo sapiens) (UniProt P62136). Kind of assay: inhibition of human PP1 catalytic subunit – biochemical, fluorescence, OMFP substrate, single point, counter-screen for PP5 inhibitor project, primary screen (AID 2235). The settings on record: purified PP1alpha, at 6.7 µM, hits give high values. A general note: The purpose of a counterscreen is to sort out artefacts and off-target activity.
Turning to `Nc1cc(N)c2nonc2c1[N+](=O)[O-]`, the inhibition (commonly the change of the read-out against control, counted positive when it falls) was inactive: -7.12%.

On to `CC(C)CC(=O)NC(Sc1ccc(Cl)cc1)C(Cl)(Cl)Cl` (stereo unspecified), for which the inhibition was inactive: -3.47%.

Take `CN(C(=O)Cc1ccc(Cl)c(Cl)c1)[C@H]1CCCC[C@@H]1N1CCCC1`: the inhibition was inactive: 0.05%.

As to `Cc1ccc(NP(=O)(Oc2ccccc2F)Oc2ccccc2F)nc1`, the inhibition was inactive: -0.34%.

On to `Cc1cc(SC(NC(=O)c2ccc(F)cc2)C(Cl)(Cl)Cl)ncn1` (stereo unspecified), for which the inhibition was inactive: 1.62%.

For `CCOP(=O)(Nc1ccccc1)OCC`, the inhibition was inactive: -3.22%.

As for `O=P(Nc1nc2ccc(Cl)cc2s1)(c1ccccc1)c1ccccc1`, the inhibition was inactive: 1.99%.

Take `CC(=O)Nc1ccc([As](=O)(O)O)cc1`: the inhibition was inactive: -0.37%.

On to `O=C(O)c1ccccc1[As](=O)(O)O`, for which the inhibition was inactive: 1.12%.

Turning to `CCN(N=Nc1nonc1N)c1nonc1N`, the inhibition is inactive: -0.03%.

In the case of `O=[N+]([O-])c1cc([N+](=O)[O-])c(CCN2CCOCC2)c([N+](=O)[O-])c1`, the inhibition is inactive: 8.28%.

Turning to `Cc1ccc(NP(=O)(Oc2cccc(C)c2)Oc2cccc(C)c2)nc1`, the inhibition was inactive: -2.58%.

`CCOC(=O)NC(Sc1ccccc1)C(Cl)(Cl)Cl` (stereo unspecified): the inhibition is inactive: 1.44%.

Regarding `c1ccc(-c2nn[nH]n2)c(-c2nn[nH]n2)c1`, the inhibition was inactive: 1.61%.

On to `O=C(NC1CCS(=O)(=O)C1)NP(=S)(Oc1ccccc1)Oc1ccccc1` (stereo unspecified), for which the inhibition was inactive: -1.59%.

For `CCNC(=S)/N=C(\N)N[N+](=O)[O-]`, the inhibition is inactive: 0.19%.

Turning to `CN(C)C(=O)Oc1noc2ccccc12`, the inhibition is inactive: -0.31%.

Turning to `Cc1ccccc1OP(=O)(Nc1ccccn1)Oc1ccccc1C`, the inhibition is inactive: 2.31%.

Consider `CCC(=O)N1C2C3N(C(=O)CC)C1C1N(C(=O)CC)C(C(N1C(=O)CC)N3C(=O)CC)N2C(=O)CC`, for which the inhibition was inactive: 1.12%.

For `O=C(OC1CN2CCC1CC2)c1ccccc1` (stereo unspecified), the inhibition is inactive: -2.56%.

As for `CC(=O)NC(SC(=S)N(CC(C)C)CC(C)C)C(Cl)(Cl)Cl` (stereo unspecified), the inhibition is inactive: 0.02%.

With `Cc1ccc(OP(=O)(Nc2ccccn2)Oc2ccc(C)cc2)cc1`, the inhibition was inactive: 0.4%.

As to `COC(=O)c1cc2c(s1)N=C(c1ccccc1)N(C)P2(=O)N1CCOCC1` (stereo unspecified), the inhibition was inactive: -0.85%.

With `CC(C)(C)C(=O)NC(Sc1ccccc1)C(Cl)(Cl)Cl` (stereo unspecified), the inhibition was inactive: 9.61%.

Regarding `CCOc1ccc(C2=NCC(CBr)S2)cc1` (stereo unspecified), the inhibition is inactive: 0.76%.

Take `O=P1(Nc2nc3ccc(Cl)cc3s2)COc2ccccc2O1` (stereo unspecified): the inhibition was inactive: -2.38%.

`CC(=O)Nc1ccc(Oc2c([N+](=O)[O-])cc([N+](=O)[O-])cc2[N+](=O)[O-])cc1`: the inhibition was inactive: 0.02%.

As for `CC(=O)Nc1ccc([As](=O)(O)O)c(O)c1`, the inhibition was inactive: -0.06%.

Regarding `C[C@H]1OP(=O)(Oc2ccccc2)C[C@@H]2O[C@@H]21` (stereo partly specified), the inhibition was inactive: -2.67%.

Turning to `C[C@@H]1C=CCP(=O)(Oc2ccccc2)O1` (stereo partly specified), the inhibition is inactive: -0.78%.

Regarding `Cc1ccccc1CN(C)C(=O)COC(=O)C(O)(c1ccccc1)c1ccccc1`, the inhibition is inactive: -3.97%.

Consider `CC(=O)c1ccc(N2CC2c2ccncc2)cc1` (stereo unspecified), for which the inhibition was inactive: 0.17%.

In the case of `c1nnnn1CCn1cnnn1`, the inhibition was inactive: -14.7%.

For `O=P(Nc1nccs1)(c1ccccc1)c1ccccc1`, the inhibition is inactive: -2.38%.

In the case of `CC(C)C(=O)NC(Sc1ccccc1)C(Cl)(Cl)Cl` (stereo unspecified), the inhibition was inactive: -3.04%.

As for `C[C@H]1OP(=O)(Oc2ccccc2)[C@H](O)[C@H](O)[C@H]1N=[N+]=[N-]` (stereo partly specified), the inhibition was inactive: 0.39%.

Consider `O=P(Nc1nc2ccccc2s1)(c1ccccc1)c1ccccc1`, for which the inhibition was inactive: -0.16%.

`CN(C)C1(CNC(=O)c2ccc(Cl)c(S(N)(=O)=O)c2)CCCCC1`: the inhibition was inactive: -2.2%.

For `O=P(Nc1ccccn1)(c1ccc(Br)cc1)c1ccc(Br)cc1`, the inhibition was inactive: 0.4%.

For `O=C(OC1CN2CCC1CC2)c1cccc(Cl)c1` (stereo unspecified), the inhibition is inactive: -2.65%.

Regarding `C(Cc1nn[nH]n1)Cc1nn[nH]n1`, the inhibition was inactive: -2.97%.

In the case of `Nc1ccc([As](=O)(O)c2ccc([N+](=O)[O-])cc2)cc1`, the inhibition is inactive: 0.02%.

As to `O=[As](O)(c1ccccc1)c1ccc(O)cc1`, the inhibition was inactive: -0.72%.

`CC(=O)NC(SC(=S)N(C)C)C(Cl)(Cl)Cl` (stereo unspecified): the inhibition is inactive: -5.98%.

As for `O=[N+]([O-])c1ncn(CCn2cnc([N+](=O)[O-])n2)n1`, the inhibition is inactive: 2.1%.

Regarding `O=[N+]([O-])c1ccc(O)c(/C=N/Nc2ccc([N+](=O)[O-])cc2[N+](=O)[O-])c1`, the inhibition was inactive: -1.19%.
